Data: ChEMBL document CHEMBL3881527, “Multi-functional small molecules as anti-proliferative agents” (2008)
pIC50: −log10 of the molar value.

Protein sequences, listed by entry. Tags and fused reporters are not part of them.
UniProt P04626, whole entry: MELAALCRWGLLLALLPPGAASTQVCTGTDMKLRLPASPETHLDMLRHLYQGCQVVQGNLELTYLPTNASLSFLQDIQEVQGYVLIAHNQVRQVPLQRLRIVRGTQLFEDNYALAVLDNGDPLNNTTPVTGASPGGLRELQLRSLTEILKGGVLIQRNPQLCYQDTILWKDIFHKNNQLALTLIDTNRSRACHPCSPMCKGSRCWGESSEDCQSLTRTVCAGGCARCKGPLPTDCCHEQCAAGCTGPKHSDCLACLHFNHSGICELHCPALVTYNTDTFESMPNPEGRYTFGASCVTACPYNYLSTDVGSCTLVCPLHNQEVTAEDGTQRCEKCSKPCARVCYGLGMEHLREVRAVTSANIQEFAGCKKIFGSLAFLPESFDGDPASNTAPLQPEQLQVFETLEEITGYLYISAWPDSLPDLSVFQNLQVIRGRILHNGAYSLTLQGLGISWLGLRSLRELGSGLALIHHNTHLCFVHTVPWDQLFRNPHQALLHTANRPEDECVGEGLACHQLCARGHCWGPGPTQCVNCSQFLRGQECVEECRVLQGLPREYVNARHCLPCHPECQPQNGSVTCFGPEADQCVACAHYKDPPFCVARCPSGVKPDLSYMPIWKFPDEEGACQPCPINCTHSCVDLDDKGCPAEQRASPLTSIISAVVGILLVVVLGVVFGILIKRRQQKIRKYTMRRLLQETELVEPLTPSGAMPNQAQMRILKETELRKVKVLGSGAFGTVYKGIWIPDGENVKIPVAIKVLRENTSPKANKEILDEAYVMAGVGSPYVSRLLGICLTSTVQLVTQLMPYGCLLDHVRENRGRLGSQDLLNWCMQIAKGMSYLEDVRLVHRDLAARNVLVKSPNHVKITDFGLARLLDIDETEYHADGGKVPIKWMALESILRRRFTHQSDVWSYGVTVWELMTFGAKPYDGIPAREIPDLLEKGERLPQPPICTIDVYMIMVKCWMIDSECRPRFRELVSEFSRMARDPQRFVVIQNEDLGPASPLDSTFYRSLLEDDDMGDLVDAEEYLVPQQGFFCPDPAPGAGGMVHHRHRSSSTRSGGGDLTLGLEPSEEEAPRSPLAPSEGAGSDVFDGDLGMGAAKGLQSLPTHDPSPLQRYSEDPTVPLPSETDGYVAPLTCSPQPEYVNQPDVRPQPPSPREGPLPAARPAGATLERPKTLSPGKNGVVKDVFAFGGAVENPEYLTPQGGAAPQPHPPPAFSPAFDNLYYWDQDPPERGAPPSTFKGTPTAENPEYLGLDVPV

Target: Receptor tyrosine-protein kinase erbB-2 (Homo sapiens, UniProt P04626)
Test: Inhibition of N-terminal GST-tagged human HER2 (Lys676 to Val1255 residues) expressed in baculovirus expression system using biotinylated FLT3 at Tyr589 as substrate preincubated for 5 mins followed by substrate addition measured after 30 mins by DELFIA method

C[C@@H](Nc1ncnc2[nH]c(-c3ccc(CNCCCCCCCC(=O)NO)cc3)cc12)c1ccccc1
pIC50: 6.00 to 7.00
